Data published in article PMC8290212 (Bioorganic & medicinal chemistry letters, 2019).

System: A/PR/8/34 strain of influenza A virus (H1N1)
Format: cell-based

Structure (SMILES): COc1cc(-c2ccnc3c2c(C)nn3-c2cccc(C(F)(F)F)c2)ccc1O [Compound 33]
- dose response in the TCID50 assay: successfully decreased viral titer with increasing concentration
